Test results reported in US20060153807A1, “Vector-mediated gene regulation in midbrain dopamine neurons” (priority 2005, published 2006).

Experiments:
αSyn = αSyn aggregation in FeCl2-treated CAD neuroblastoma cells, Triton X-100 fractions; assay type: cell-based, mouse; details: overexpression by transfection, 2 mM FeCl2 18 h
Method: FIG. 24 illustrates that overexpression of WT DJ-1 inhibits aggregation of αSyn in vivo. (A) CAD murine neuroblastoma cells were transfected with Flag-αSyn along with WT DJ-1, L166P clinical mutant, or vector alone, and were differentiated in vitro via serum withdrawal. Cells were subsequently treated with 2 mM FeCl2 (Fe), 5 μM lactacystin (LC), or media alone (0). Triton X-100-soluble (Tx-100 sol) and Triton X-100-insoluble (Tx-100 insol) fractions were analyzed by Western blotting. Upon FeCl2 treatment, αSyn accumulates in the Triton X-100-insoluble fraction, and accumulation of insoluble αSyn is inhibited by overexpression of WT DJ-1 (left) but not the L166P clinical mutant (right). (B) Triton X-100-insoluble αSyn as quantified by NIH Image J of a Western blot (from [A]). (C) Heterozygous (±) and DJ-1 deficient (−/−) ES cells were differentiated using the embryoid body protocol. Cells were transfected with Flag-αSyn (F-αSyn), and, after 48 h, treated with 2 mM FeCl2 or with media alone for 18 h. Cell lysates were analyzed by Western blotting for αSyn or β-actin. […]
(A) Undifferentiated ES cells were transfected with Flag-αSyn and treated with 2 mM FeCl2 (Fe) or media alone (0) as described in FIG. 3. […] (C) Flag-αSyn from (B) was quantitated using NIH Image J.
The activity of DJ-1 overexpression on αSyn aggregation in this tissue culture model system was evaluated. […]

[1] = thermal denaturation monitored by circular dichroism; assay type: physicochemical; details: CD at 222 nm, range studied 0-90° C.
Description: (G) Redox regulation is unaffected by the C106A mutation.
Molecular chaperones typically display marked stability to thermal stress (Sastry et al. 2002). […] (see FIG. 28).

DJ-1-deficient ES cells = test: rescue of DJ-1-deficient ES cells from H2O2 toxicity, MTT assay; details: transient transfection of expression plasmid, 10 μM H2O2 for 15 h, vs vector alone
[2] = system: CAD murine neuroblastoma cells; test: Q333P mutant NFL intracytoplasmic inclusions in CAD cells; assay type: cell-based, mouse; details: co-overexpression with Q333P mutant NFL
Method: After 72 h in culture, cells were fixed and stained with a mouse monoclonal antibody for NFL and ToPro3, a nuclear dye. Scale bar, 100 μm. (M-R) CAD cell transfectants, as above, were fixed and stained with a polyclonal antibody for NFL (Perez-Olle et al. 2002) along with a mouse monoclonal antibody specific for the transfected human DJ-1. Scale bar, 20 μm. (S) Quantification of CAD cell NFL aggregates was performed using confocal microscopy. Images from tenrandomly selected fields in each of three wells were quantified for the presence of aggregates for each condition and presented as a percentage of total cells per field.
In a separate set of experiments, the inventors assayed the ability of DJ-1 to inhibit aggregation of a second substrate, neurofilament light subunit (NFL). […]
(§1) Quantification of CAD cell aggregates was performed using a Zeiss LSM Pascal confocal microscope (Zeiss, Oberkochen, Germany) with a 20× long working distance lens. […] Images from tenrandomly selected fields in each of three wells were quantified for each condition. Cells containing at least one intracytoplasmic aggregate, independent of size or number per cell, were scored as positive for aggregates. This number was divided by the number of transfected cells per field, determined by GFP fluorescence.

HeLa cells = test: rescue from Q333P mutant NFL toxicity in HeLa cells, MTT reduction assay; assay type: cell-based; details: 72 h after transfection
Method: FIG. 30 depicts the additional studies of DJ-1 mutations. […] Cells from FIG. 4M were quantified via ToPro3 nuclear staining and are expressed as number of cells per field from ten independent fields in each of three wells. […] GFP positive transfected cells from FIG. 5A-5L were quantified and are expressed as number of transfected cells per field from ten independent fields in each of three wells. […] After 72 h, cells were assayed by MTT reduction assay (which detects reduction of 3-(4,5-dimethylthiazol-2-yl)-2,5-diphenyltetrazolium bromide by metabolic enzymes) (Martinat et al. 2004). […] Undifferentiated ES cells were transfected with Q333P mutant NFL along with WT human DJ-1, C53A mutant DJ-1, or vector control. After 72 h, cells were assayed by MTT reduction assay (Martinat et al. 2004). […] Cells were differentiated for 72 h and lysed to produce Triton X-100-soluble and -insoluble fractions. Lysates were exposed to Western blotting with an antibody against transfected human NFL.

citrate synthase (CS) = biological target: T1, citrate synthase (CS) (Sus scrofa, UniProt P00889); test: suppression of heat-induced aggregation of citrate synthase (chaperone assay); assay type: biochemical; details: 0.8 μM CS, 43° C.; DJ-1 0.5-4.0 μM
T1 construct: purchased Sigma
T1 sequence (P00889 28-464): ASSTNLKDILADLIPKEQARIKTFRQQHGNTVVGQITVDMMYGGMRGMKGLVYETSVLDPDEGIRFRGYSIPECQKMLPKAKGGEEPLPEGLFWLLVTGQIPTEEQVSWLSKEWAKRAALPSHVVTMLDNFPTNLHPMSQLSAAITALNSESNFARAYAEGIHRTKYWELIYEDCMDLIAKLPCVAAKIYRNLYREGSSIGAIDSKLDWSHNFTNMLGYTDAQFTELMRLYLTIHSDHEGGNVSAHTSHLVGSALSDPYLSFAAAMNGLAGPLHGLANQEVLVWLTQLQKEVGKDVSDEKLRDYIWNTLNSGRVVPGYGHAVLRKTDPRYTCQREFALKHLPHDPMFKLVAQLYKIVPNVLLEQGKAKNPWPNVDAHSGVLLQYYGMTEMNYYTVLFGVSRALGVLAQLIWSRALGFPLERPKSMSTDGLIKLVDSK
Method: FIG. 22 illustrates that DJ-1 is a redox-dependent molecular chaperone. (A) Aggregation of CS was monitored at 43° C. after addition of either 0.8 μM CS alone (black), or along with 8.0 μM RNase A (purple), 0.5 μM DJ-1 (aqua), 2.0 μM DJ-1 (blue), 4.0 μM DJ-1 (red), or 2.0 μM Hsp27 (green). (B) Aggregation of 0.8 μM CS after 30 min at 4° C. […] (C) Aggregation of insulin (26 μM) B chains induced by 20 mM DTT at 25° C. Insulin alone (black) or in the presence of 4.0 μM RNase A (purple), 0.5 μM DJ-1 (aqua), 2.0 μM DJ-1 (blue), 4.0 μM DJ-1 (red), or 2.0 μM Hsp27 (green). […]
To test the redox regulation of DJ-1, the inventors assayed chaperone activity in the CS aggregation assay in the presence or absence of the reducing agent DTT. […] DTT-reduced DJ-1 was incubated with H2O2 (10 mM in aggregation buffer for 10 min at 4° C. followed by dialysis against aggregation buffer for 2 h), and subsequently chaperone activity was measured in the CS thermal aggregation assay. […]
Aggregation assays. CS aggregation was performed in 40 mM HEPES (pH 7.8), 20 mM potassium hydroxinde, 50 mM potassium chloride, and 10 mM ammonium sulfate, and monitored in a thermostat-controlled fluorescence spectrophotometer with excitation and emission wavelengths at 500 nm and slit widths at 2.5 nm. […]

[3] = system: CAD murine neuroblastoma cells; test: αSyn intracytoplasmic inclusions in CAD cells, confocal quantification; assay type: cell-based, mouse; details: overexpression with Flag-αSyn, vs vector
Method: (A-L) CAD murine neuroblastoma cells were transfected with WT DJ-1 (A-F), L166P DJ-1 (G-I) or vector control (J-L), along with Flag-αSyn (D-L) or vector control (A-C) and differentiated in vitro by serum withdrawal for 72 h. Cells were fixed and stained with a mouse monoclonal antibody for αSyn and ToPro3, a nuclear dye, and images were obtained by confocal microscopy. Transfection of Flag-αSyn induced formation of intracytoplasmic inclusions (arrows). Scale bar, 20 μm. (M) Quantification of cells with inclusions was performed on ten random images from each of three wells per condition. Images were quantified by an observer blinded to the experiment. […] Aggregation is expressed as the percentage of cells containing αSyn aggregates per frame. […]
as §1

B1: L166P mutant DJ-1: PD-associated L166P mutant human DJ-1; recombinant protein in vitro or expressed from plasmid in cells (protein, UniProt Q99497 1-189, looked up, variant L166P)
chain: MASKRALVILAKGAEEMETVIPVDVMRRAGIKVTVAGLAGKDPVQCSRDVVICPDASLEDAKKEGPYDVVVLPGGNLGAQNLSESAAVKEILKEQENRKGLIAAICAGPTALLAHEIGFGSKVTTHPLAKDKMMNGGHYTYSENRVEKDGLILTSRGPGTSFEFAPAIVEALNGKEVAAQVKAPLVLKD
In the case of B1, the “accumulation of Triton X-100-insoluble αSyn” value (αSyn) is reported as “but not”, the thermal unfolding transition [1] is reported as “does not exhibit a thermal unfolding transition” and the “viability of H2O2-treated DJ-1 knockout cells after transfection” value (DJ-1-deficient ES cells) is reported as “did not significantly alter the viability of H2O2-treated knockout cells”. The “accumulation of NFL inclusions” value [2] was “failed to inhibit the accumulation of aggregates”, the “rescue from Q333P mutant NFL toxicity” value (HeLa cells) was “but not” and the “chaperone activity: suppression of heat-induced CS aggregation” value (citrate synthase (CS)) was “abrogated chaperone activity”. The “number of cells containing αSyn aggregates” value [3] was “fails to do so”.

B2: C106A/C53A/C46A: triple mutant that harbors mutations at all three cysteines in DJ-1 (protein, UniProt Q99497 1-189, looked up, variant C46A C53A C106A)
chain: B1 chain with C46A, C53A, C106A, P166L
With B2 the “viability of H2O2-treated DJ-1 knockout cells after transfection” value (DJ-1-deficient ES cells) was “failed to protect from H2O2 toxicity” and the “chaperone activity: suppression of heat-induced CS aggregation” value (citrate synthase (CS)) was “loss of chaperone function”.

Residue numbers refer to the chain shown, from its start. Names and notes keep the numbering of the source.
